TDP1 block = TDP1 (human) enzyme inhibition; Q9NUW8; recombinant TDP1, AlphaScreen DNA substrate cleavage; Potency, µM (doses to about 130 µM), for the others: at the highest dose activity change, negative = inhibition, actives largely listed as inhibitors; hit rate 0.28% among 350,000; AID 485290; further: potency means the concentration at half of the fitted maximal effect; on the % scale 0 is the no-effect control and ±100 the full control effect; nearly all actives have a fitted effect of over 40% in size
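Here, a 5' biotin and 3' phosphotyrosine-FITC DNA oligonucleotide reports Tdp1 activity: intact substrate bridges AlphaScreen beads, while cleavage leaves a 3' phosphate and drops signal. All incubations at room temperature.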
DT40 TDP1 CPT = growth inhibition of DT40 Tdp1-/-;hTDP1 cells with camptothecin (screen for TDP1 inhibitors); chicken DT40 Tdp1-/-;hTDP1 cells + 20 nM CPT, ATP luminescence, 48 h; Potency, µM (highest dose often 46.2 µM), inactives show top-dose activity change, negative = growth inhibition, most hits filed as inhibitors; hit rate 12% among 420,000; AID 686979; further: potency means the concentration at half of the fitted maximal effect; on the % scale 0 is the no-effect control and ±100 the full control effect; nearly all actives have a fitted effect of over 55% in size
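Chicken DT40 Tdp1-/- cells stably complemented with human TDP1 were seeded at 400 cells/well in medium containing 20 nM camptothecin, exposed to pin-transferred compounds, and grown at 37 °C for at least 48 hr. Viability was read as ATP luminescence.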
uPA generation = inhibitors of cell surface uPA generation. cell surface uPA generation assay, qHTS. Potency, µM (titrated, usually from 38.3 µM), inactives show at the highest dose activity change, negative = inhibition, usual class: inhibitors. hit rate 0.31% among 330,000. AID 540303; active means well fitted inhibition curve with a large enough effect; inconclusive means small, poorly fitted or top-dose-only effect; inactive means no such curve, though single readings can be large or run the other way; tested in mouse RAW 264.7 cells; further: potency means the concentration at half of the fitted maximal effect; on the % scale 0 is the no-effect control and ±100 the full control effect; nearly all actives have a fitted effect of over 55% in size
miR-21 reporter = raises the signal of a miR-21 reporter; HeLa miR-21 FLuc reporter, luciferase, 48 h; Potency, µM (series often up to 38.3 µM), inactives show top-dose reporter change, positive = more light; 340,000 tested, under 10 active; active = well fitted rising curve with a large enough effect; inconclusive = small, poorly fitted or top-dose-only effect; inactive = no such curve, though single readings can be large or run the other way;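 also: % of control where 0% means no effect; miR-21 action dims this reporter so a rising signal means less miR-21 action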
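Compounds were titrated across several concentrations (up to approximately 40 uM) and incubated 48 hours with HeLa miR-21-FLuc reporter cells (miR-21 target sequence downstream of FLuc, endogenous miR-21). Readout was firefly luciferase luminescence after lytic detection reagent.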
DT40 TDP1 no CPT = qHTS for Inhibitors of human tyrosyl-DNA phosphodiesterase 1 (TDP1): qHTS in cells in absence of CPT; DT40 Tdp1-/- hTDP1 cells, no CPT, ATP luminescence, 48 h; Potency, µM (highest dose often 46.2 µM), without a hit: at the highest dose activity change, negative = growth inhibition, actives largely listed as inhibitors; hit rate 15% among 420,000; AID 686978, 2013; further: potency means the concentration at half of the fitted maximal effect; on the % scale 0 is the no-effect control and ±100 the full control effect; nearly all actives have a fitted effect of over 55% in size
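Chicken DT40 Tdp1-/- cells stably complemented with human TDP1 were seeded at 400 cells/well with DMSO in place of 20 nM camptothecin. After compound pinning, cells grew at least 48 hr at 37 °C; viability read by CellTiter-Glo luminescence.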
* hit, by the source's call; [ ] = another dose, or the depositor's remark. Compounds with a hit are over-represented: about 16% of the library has one in this group of screens. Unless noted, the call rests on the fitted dose curve; in most records, active means well fitted curve in the direction sought with a large enough effect; inconclusive means small, poorly fitted or top-dose-only effect, or another doubt; inactive means no such curve, though single readings can be large; an effect the other way counts as inactive or inconclusive.

What do the screens show for `COc1ccccc1C(c1nnnn1Cc1ccccc1)N1CCN(C2CCCC2)CC1` (configuration not stated)?
TDP1 block: 0%; DT40 TDP1 CPT: inconclusive; uPA generation: 0%; miR-21 reporter: -2%; DT40 TDP1 no CPT: inconclusive

Results for COc1ccc(Cn2nnnc2C(c2ccc3ncccc3c2)N2CCN(C3CCCCC3)CC2)cc1 (configuration not stated) ?
TDP1 block: 0%; DT40 TDP1 CPT: inconclusive; uPA generation: -25%; miR-21 reporter: 2%; DT40 TDP1 no CPT: inconclusive

What do the screens show for `COc1ccc(OC)c(C(c2nnnn2Cc2ccccc2)N2CCN(C3CCCCC3)CC2)c1` (configuration not stated)?
TDP1 block: 3%; DT40 TDP1 CPT: 18µM*; uPA generation: -4%; miR-21 reporter: 0%; DT40 TDP1 no CPT: inconclusive

What do the screens show for `O=C1OCCC1(c1ccccc1)c1ccccc1`?
TDP1 block: -4%; DT40 TDP1 CPT: inconclusive; uPA generation: -3%; DT40 TDP1 no CPT: -11%

How did Cc1cc2oc(=O)cc(CN3CCN(c4ccccc4)CC3)c2cc1Cl do in these assays?
DT40 TDP1 CPT: -2%; DT40 TDP1 no CPT: -4%

Results for Cc1cc(C(=O)Cn2ncc(Cl)c(Cl)c2=O)c(C)n1CC(F)(F)F ?
TDP1 block: 4%; DT40 TDP1 CPT: 4.6µM*; uPA generation: -8%; miR-21 reporter: inconclusive; DT40 TDP1 no CPT: 3.7µM*

Results for Cc1ccc(C)c(C(=O)CSc2nnc(C)s2)c1 ?
TDP1 block: 6%; DT40 TDP1 CPT: 7%; uPA generation: 6%; miR-21 reporter: -39%; DT40 TDP1 no CPT: inconclusive

How did CCCc1cc(=O)[nH]c(SCC(=O)c2cc(C)n(CC(F)(F)F)c2C)n1 do in these assays?
TDP1 block: 5%; DT40 TDP1 CPT: 8%; uPA generation: 3%; miR-21 reporter: -7%; DT40 TDP1 no CPT: -2%

What do the screens show for `Cc1ccc(C)c(C(=O)Cn2ncc(Cl)c(Cl)c2=O)c1`?
TDP1 block: 7%; DT40 TDP1 CPT: 5.8µM*; uPA generation: -5%; miR-21 reporter: inconclusive; DT40 TDP1 no CPT: 3.3µM*

How did Cc1cccc(Cn2ncc(Cl)c(Cl)c2=O)c1 do in these assays?
TDP1 block: 1%; DT40 TDP1 CPT: 12µM*; miR-21 reporter: inconclusive; DT40 TDP1 no CPT: 9.2µM*

How did Cc1cc2oc(=O)cc(Cn3ncc(Cl)c(Cl)c3=O)c2cc1Cl do in these assays?
TDP1 block: 3%; DT40 TDP1 CPT: 3.3µM*; uPA generation: -10%; miR-21 reporter: -1%; DT40 TDP1 no CPT: 3.3µM*

Results for Cc1ccc(CNC(=O)C2CCCN2S(=O)(=O)c2ccc(F)cc2)cc1 (configuration not stated) ?
TDP1 block: 3%; DT40 TDP1 CPT: -20%; uPA generation: 4%; miR-21 reporter: -1%; DT40 TDP1 no CPT: -20%

Results for Cc1ccc(C)c(NC(=O)n2ncc3cc(Cl)ccc32)c1 ?
TDP1 block: 6%; DT40 TDP1 CPT: -10%; miR-21 reporter: 1%; DT40 TDP1 no CPT: -29%

What do the screens show for `Cc1cc(C)cc(C(=O)NC(CC(N)=O)c2ccc(NC3CCCCC3)c([N+](=O)[O-])c2)c1` (configuration not stated)?
TDP1 block: 2%; DT40 TDP1 CPT: -23%; uPA generation: -1%; miR-21 reporter: -2%; DT40 TDP1 no CPT: -3%

How did CCOc1ccccc1C(=O)N(Cc1cccs1)C1CCS(=O)(=O)C1 (configuration not stated) do in these assays?
TDP1 block: 4%; DT40 TDP1 CPT: 0%; uPA generation: -4%; miR-21 reporter: -8%; DT40 TDP1 no CPT: -14%

How did Cc1cnc(-c2nnc(N(C)C(=O)c3ccccn3)s2)cn1 do in these assays?
TDP1 block: 5%; miR-21 reporter: -6%

Results for CCNCCCNCCCCNCCCNCC ?
TDP1 block: 10%[56.1 µM]; DT40 TDP1 CPT: 3.8µM*; DT40 TDP1 no CPT: 5.3µM*

Results for CC(C)(C)N1CC(C(=O)Nc2ccc(S(N)(=O)=O)cc2)CC1=O (configuration not stated) ?
TDP1 block: 3%; DT40 TDP1 CPT: 0%; uPA generation: 11%; miR-21 reporter: -1%; DT40 TDP1 no CPT: 5%

Results for Cc1cccc(N2CC(C(=O)Nc3ccc(S(=O)(=O)N4CCCCC4)cc3)CC2=O)c1C (configuration not stated) ?
TDP1 block: 9%; DT40 TDP1 CPT: inconclusive; uPA generation: -12%; miR-21 reporter: 23%; DT40 TDP1 no CPT: inconclusive

What do the screens show for `Cc1ccccc1N1CC(C(=O)Nc2ccc(S(=O)(=O)N3CCCCC3)cc2)CC1=O` (configuration not stated)?
TDP1 block: 3%; DT40 TDP1 CPT: inconclusive; miR-21 reporter: 10%; DT40 TDP1 no CPT: 16µM*

How did CC(C)(C)N1CC(C(=O)Nc2ccc(S(=O)(=O)N3CCCCC3)cc2)CC1=O (configuration not stated) do in these assays?
TDP1 block: -14%; DT40 TDP1 CPT: inconclusive; uPA generation: 0%; DT40 TDP1 no CPT: 1.6µM*

How did NC(=O)c1ncn([C@@H]2O[C@H](CNCc3cnc(N4CCOCC4)nc3)[C@@H](O)[C@H]2O)n1 do in these assays?
DT40 TDP1 CPT: 0%; uPA generation: 10%; DT40 TDP1 no CPT: -7%

Results for O=C(O)c1cc(-c2ccccc2Cl)n(-c2ccc(F)cc2)n1 ?
DT40 TDP1 CPT: 6%; uPA generation: 8%; miR-21 reporter: -15%; DT40 TDP1 no CPT: -2%

What do the screens show for `COC(=O)c1[nH]c2c(c1C)C(=O)CC(c1ccccc1)C2` (configuration not stated)?
TDP1 block: 1%; DT40 TDP1 CPT: 1.3µM*; uPA generation: inconclusive; miR-21 reporter: 25%; DT40 TDP1 no CPT: 1.3µM*

Results for CCOC(=O)c1[nH]c2c(c1Cc1ccccc1)C(=O)CC(c1ccccc1)C2 (configuration not stated) ?
TDP1 block: -2%[12.3 µM]; DT40 TDP1 CPT: 18µM*; miR-21 reporter: 19%; DT40 TDP1 no CPT: 21µM*

How did CCOC(=O)c1[nH]c2c(c1Cc1ccccc1C)C(=O)CC(c1ccccc1)C2 (configuration not stated) do in these assays?
TDP1 block: 0%; DT40 TDP1 CPT: inconclusive; miR-21 reporter: 3%; DT40 TDP1 no CPT: inconclusive

How did COC(=O)c1[nH]c2c(c1C)C(=O)CC(c1ccc(OC)cc1)C2 (configuration not stated) do in these assays?
DT40 TDP1 CPT: -10%; uPA generation: -2%; miR-21 reporter: -14%; DT40 TDP1 no CPT: inconclusive

A draw from above in order of SMILES length, low to high.
What do the screens show for `COC(=O)c1[nH]c2c(c1C)C(=O)CC(c1ccccc1)C2` (configuration not stated)?
TDP1 block: 1%; DT40 TDP1 CPT: 1.3µM*; uPA generation: inconclusive; miR-21 reporter: 25%; DT40 TDP1 no CPT: 1.3µM*

What do the screens show for `Cc1ccccc1N1CC(C(=O)Nc2ccc(S(=O)(=O)N3CCCCC3)cc2)CC1=O` (configuration not stated)?
TDP1 block: 3%; DT40 TDP1 CPT: inconclusive; miR-21 reporter: 10%; DT40 TDP1 no CPT: 16µM*

Results for Cc1cccc(N2CC(C(=O)Nc3ccc(S(=O)(=O)N4CCCCC4)cc3)CC2=O)c1C (configuration not stated) ?
TDP1 block: 9%; DT40 TDP1 CPT: inconclusive; uPA generation: -12%; miR-21 reporter: 23%; DT40 TDP1 no CPT: inconclusive
